From the supplement of paper PMC11403291

The chains behind the UniProt entries cited, without tags or fusion partners. Where a name states a change or a piece, a line headed by the entry shows the natural chain unless it says otherwise.
UniProt Q13705: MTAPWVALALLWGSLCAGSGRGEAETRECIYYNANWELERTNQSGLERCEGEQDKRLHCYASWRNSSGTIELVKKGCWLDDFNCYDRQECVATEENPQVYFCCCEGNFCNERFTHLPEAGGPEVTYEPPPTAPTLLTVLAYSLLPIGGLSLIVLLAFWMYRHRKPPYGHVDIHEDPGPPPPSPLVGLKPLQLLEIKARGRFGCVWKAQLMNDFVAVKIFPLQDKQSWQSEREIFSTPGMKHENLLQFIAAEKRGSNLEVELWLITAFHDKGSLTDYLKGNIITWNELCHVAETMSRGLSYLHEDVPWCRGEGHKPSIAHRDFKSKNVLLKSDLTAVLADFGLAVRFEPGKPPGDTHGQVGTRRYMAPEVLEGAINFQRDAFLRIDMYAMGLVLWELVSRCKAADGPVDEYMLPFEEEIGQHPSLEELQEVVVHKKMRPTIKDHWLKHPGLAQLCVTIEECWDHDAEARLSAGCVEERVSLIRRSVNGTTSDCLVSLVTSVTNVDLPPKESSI
UniProt Q15375: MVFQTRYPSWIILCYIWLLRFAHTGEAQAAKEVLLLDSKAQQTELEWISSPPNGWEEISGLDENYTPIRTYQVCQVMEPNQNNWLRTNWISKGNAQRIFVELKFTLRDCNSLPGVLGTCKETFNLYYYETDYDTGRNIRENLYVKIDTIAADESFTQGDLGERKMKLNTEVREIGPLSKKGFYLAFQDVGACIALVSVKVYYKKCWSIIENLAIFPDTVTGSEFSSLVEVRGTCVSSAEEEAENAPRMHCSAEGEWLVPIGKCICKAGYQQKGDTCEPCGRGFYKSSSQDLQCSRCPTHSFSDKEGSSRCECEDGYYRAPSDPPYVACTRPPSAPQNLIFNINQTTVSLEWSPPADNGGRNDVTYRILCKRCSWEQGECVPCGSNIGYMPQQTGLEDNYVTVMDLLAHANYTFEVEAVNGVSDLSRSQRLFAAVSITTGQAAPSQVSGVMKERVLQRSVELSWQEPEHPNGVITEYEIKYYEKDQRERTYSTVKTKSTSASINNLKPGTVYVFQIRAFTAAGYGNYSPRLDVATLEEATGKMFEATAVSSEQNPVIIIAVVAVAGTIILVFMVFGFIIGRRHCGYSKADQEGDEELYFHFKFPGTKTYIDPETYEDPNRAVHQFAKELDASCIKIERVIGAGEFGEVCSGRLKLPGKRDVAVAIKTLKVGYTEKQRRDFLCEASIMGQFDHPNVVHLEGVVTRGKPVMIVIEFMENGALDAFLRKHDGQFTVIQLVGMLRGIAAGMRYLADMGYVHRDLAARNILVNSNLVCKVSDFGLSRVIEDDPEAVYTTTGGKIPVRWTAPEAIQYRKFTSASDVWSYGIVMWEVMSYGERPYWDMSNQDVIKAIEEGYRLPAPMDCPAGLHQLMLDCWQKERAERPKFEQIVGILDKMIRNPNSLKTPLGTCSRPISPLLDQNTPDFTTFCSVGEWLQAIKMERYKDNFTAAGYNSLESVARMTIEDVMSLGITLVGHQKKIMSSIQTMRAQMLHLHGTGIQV
UniProt P09769: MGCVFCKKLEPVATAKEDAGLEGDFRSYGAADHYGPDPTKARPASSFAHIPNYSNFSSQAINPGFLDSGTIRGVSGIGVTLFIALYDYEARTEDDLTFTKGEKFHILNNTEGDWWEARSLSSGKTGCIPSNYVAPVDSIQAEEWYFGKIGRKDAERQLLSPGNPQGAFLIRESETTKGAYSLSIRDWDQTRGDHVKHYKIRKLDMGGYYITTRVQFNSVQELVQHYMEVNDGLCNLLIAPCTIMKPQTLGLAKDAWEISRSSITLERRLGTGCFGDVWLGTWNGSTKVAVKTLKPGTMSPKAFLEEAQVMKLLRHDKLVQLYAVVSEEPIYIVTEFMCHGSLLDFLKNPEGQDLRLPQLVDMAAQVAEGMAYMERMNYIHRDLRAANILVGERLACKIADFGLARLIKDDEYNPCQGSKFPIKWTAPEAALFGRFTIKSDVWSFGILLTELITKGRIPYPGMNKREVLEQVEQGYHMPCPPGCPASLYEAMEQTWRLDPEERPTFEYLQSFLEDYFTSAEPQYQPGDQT
UniProt Q8N4C8: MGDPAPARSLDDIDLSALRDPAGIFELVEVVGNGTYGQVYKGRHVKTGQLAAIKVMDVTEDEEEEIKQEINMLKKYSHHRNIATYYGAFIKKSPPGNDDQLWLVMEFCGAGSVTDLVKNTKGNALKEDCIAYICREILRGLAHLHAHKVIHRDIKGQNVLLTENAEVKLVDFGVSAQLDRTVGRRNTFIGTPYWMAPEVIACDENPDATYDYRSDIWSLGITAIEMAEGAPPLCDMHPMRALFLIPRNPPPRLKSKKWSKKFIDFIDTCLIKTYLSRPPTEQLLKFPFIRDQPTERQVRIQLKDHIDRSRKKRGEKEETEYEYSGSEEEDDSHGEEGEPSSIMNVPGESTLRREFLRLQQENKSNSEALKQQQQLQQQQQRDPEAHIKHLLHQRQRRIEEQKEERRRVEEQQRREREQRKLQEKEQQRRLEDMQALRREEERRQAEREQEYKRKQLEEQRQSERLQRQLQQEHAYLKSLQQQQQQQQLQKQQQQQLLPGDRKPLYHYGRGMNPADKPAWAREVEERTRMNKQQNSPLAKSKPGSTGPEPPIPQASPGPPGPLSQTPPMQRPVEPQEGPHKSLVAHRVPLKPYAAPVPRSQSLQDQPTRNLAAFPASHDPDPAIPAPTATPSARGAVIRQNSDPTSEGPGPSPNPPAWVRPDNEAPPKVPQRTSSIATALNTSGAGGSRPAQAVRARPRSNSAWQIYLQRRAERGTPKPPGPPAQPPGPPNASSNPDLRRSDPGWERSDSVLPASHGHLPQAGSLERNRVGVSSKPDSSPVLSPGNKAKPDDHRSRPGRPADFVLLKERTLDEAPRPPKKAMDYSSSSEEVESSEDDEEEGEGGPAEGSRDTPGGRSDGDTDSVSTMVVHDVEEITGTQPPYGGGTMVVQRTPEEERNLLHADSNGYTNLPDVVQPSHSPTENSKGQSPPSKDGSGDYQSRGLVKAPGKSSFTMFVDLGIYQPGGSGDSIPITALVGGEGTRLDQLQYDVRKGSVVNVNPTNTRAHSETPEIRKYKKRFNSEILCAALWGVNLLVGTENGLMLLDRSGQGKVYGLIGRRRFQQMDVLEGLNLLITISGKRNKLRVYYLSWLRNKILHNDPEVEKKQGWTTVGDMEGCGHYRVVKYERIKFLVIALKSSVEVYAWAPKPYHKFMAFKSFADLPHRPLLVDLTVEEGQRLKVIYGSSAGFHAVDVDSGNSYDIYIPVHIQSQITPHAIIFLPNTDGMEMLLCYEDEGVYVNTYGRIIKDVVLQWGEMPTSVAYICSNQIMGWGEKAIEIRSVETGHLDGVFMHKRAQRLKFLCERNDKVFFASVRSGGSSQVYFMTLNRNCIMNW
UniProt Q16512: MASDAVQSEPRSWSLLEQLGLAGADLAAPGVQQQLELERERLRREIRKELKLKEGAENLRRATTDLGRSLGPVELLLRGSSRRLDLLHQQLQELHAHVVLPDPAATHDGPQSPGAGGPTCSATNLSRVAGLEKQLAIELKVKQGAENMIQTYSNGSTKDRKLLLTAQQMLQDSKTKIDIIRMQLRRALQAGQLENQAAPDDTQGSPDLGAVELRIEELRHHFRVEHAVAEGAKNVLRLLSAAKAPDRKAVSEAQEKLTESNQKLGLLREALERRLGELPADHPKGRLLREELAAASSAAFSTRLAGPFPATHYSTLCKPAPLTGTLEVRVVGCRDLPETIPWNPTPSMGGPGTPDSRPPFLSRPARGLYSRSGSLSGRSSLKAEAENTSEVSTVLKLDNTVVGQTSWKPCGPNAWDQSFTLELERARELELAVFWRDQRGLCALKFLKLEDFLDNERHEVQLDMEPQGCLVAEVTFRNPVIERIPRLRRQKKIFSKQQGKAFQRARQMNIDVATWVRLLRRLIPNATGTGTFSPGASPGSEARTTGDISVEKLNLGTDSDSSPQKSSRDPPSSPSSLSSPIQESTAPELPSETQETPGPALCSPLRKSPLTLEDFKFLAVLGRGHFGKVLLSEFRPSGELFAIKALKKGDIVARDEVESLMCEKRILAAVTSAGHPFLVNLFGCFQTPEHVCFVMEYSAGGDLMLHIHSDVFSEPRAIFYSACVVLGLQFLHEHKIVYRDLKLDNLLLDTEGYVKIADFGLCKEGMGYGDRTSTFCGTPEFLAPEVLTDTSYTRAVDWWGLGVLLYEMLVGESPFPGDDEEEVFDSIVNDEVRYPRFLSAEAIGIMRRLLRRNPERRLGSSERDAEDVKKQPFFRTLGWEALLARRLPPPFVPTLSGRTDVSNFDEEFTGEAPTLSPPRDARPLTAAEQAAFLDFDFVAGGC
UniProt Q9H0K1: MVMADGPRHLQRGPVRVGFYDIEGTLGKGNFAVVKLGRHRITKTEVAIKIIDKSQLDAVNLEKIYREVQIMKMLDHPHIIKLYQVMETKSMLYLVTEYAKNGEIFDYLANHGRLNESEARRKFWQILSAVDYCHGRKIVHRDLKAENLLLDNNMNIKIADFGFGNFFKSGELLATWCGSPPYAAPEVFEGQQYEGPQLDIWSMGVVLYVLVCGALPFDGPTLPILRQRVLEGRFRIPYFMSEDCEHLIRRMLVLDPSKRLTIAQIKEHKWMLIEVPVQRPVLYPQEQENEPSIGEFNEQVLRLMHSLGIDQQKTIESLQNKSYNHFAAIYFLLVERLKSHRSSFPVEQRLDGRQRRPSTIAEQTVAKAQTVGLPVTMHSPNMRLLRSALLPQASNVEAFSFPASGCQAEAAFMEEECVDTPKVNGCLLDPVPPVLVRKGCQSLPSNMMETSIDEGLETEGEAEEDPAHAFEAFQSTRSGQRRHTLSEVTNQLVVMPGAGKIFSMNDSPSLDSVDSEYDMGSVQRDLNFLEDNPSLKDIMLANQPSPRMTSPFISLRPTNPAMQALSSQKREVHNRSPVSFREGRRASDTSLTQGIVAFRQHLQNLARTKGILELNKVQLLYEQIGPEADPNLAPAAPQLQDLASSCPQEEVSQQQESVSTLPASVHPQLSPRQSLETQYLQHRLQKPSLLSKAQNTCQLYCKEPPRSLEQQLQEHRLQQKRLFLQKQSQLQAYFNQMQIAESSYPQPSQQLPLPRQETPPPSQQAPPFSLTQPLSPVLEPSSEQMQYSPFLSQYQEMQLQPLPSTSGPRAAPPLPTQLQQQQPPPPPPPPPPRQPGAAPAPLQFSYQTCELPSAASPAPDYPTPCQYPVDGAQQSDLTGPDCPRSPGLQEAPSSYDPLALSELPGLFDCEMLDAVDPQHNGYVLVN
UniProt Q9H2G2: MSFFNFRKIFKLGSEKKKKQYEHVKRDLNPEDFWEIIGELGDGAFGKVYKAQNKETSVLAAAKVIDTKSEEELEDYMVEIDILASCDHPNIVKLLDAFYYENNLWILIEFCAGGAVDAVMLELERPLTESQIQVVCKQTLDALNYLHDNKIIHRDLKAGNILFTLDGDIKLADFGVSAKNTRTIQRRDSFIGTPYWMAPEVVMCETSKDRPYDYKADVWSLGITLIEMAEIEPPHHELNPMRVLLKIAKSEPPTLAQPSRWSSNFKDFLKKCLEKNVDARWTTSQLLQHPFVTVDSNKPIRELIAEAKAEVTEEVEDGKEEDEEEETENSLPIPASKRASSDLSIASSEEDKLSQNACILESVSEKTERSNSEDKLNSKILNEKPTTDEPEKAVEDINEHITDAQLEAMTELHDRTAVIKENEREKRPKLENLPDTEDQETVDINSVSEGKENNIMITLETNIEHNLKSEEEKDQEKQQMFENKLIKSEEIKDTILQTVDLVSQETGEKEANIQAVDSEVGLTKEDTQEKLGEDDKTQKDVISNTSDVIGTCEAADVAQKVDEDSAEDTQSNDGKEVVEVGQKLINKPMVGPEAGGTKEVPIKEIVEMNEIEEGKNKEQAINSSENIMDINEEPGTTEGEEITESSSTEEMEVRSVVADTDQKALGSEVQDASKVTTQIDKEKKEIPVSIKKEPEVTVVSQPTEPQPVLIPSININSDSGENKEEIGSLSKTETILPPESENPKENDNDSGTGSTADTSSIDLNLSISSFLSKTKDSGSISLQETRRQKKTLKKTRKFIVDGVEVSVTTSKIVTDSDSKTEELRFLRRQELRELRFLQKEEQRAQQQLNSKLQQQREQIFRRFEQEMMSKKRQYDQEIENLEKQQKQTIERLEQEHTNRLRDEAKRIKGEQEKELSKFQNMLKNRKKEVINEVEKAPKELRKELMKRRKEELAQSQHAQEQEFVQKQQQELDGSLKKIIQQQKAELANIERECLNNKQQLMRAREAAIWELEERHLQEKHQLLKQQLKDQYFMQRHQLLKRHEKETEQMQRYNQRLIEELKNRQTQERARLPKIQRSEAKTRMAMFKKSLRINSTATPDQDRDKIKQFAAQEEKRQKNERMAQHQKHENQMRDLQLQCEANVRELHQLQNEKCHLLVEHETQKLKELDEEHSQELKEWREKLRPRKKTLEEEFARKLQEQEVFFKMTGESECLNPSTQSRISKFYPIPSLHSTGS

How the values were obtained:
Assay in all cases: apparent dissociation constant pKd app (kinobead competition) (-log10(M)); higher = stronger binding
ACVR2B = ACVR2B (UniProt Q13705)
ADRBK1 = biological target: T1, ADRBK1 (UniProt P25098)
T1 sequence (whole entry): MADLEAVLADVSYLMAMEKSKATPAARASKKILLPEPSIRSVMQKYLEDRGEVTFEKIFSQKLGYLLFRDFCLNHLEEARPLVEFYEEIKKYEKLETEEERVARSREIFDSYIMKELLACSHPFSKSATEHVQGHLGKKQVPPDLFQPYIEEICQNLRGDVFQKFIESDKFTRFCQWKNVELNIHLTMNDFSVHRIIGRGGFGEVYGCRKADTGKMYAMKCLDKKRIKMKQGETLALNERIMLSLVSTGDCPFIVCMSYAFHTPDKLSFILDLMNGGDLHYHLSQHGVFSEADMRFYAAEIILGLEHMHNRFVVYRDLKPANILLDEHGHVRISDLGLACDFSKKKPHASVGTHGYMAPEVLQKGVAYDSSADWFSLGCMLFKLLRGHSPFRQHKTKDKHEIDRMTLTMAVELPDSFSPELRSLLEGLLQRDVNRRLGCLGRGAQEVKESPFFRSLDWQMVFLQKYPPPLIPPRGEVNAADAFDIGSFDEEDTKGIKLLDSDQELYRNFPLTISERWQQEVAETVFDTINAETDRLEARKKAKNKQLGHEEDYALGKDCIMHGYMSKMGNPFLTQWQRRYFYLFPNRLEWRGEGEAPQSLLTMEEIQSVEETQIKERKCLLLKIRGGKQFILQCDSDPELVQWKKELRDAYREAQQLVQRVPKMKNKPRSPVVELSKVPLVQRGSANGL

ADRBK2 = biological target: T2, ADRBK2 (UniProt P35626)
T2 sequence (whole entry): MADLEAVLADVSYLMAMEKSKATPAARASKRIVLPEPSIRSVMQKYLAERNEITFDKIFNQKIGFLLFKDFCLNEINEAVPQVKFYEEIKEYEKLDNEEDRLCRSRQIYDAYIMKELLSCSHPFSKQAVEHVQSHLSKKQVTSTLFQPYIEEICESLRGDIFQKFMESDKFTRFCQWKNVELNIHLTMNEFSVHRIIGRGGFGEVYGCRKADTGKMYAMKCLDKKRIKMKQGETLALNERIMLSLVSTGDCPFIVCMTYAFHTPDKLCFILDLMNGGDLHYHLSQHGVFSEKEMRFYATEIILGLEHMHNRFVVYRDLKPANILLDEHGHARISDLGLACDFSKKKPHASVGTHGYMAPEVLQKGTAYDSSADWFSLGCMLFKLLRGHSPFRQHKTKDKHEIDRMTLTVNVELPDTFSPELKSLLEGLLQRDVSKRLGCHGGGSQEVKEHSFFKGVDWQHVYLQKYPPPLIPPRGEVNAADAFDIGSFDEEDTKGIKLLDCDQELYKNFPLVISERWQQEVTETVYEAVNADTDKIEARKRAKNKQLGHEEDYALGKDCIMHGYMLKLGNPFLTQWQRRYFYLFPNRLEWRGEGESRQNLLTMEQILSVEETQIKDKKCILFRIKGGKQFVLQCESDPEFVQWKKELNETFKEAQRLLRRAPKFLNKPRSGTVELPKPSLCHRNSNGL

EPHA7 = EPHA7 (UniProt Q15375)
FGR = FGR (UniProt P09769)
HIPK1 = HIPK1 (UniProt Q86Z02)
MAP2K6 = biological target: T3, MAP2K6 (UniProt P52564)
T3 sequence (whole entry): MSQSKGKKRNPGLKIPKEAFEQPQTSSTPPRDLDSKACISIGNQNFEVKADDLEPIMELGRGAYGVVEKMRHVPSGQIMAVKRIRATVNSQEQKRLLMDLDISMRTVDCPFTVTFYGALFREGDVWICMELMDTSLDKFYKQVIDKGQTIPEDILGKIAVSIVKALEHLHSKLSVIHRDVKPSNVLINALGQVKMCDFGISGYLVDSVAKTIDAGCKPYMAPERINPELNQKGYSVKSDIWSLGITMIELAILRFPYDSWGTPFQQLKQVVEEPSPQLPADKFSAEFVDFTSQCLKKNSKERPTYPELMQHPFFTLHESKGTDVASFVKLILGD

MINK1 = MINK1 (UniProt Q8N4C8)
PIP4K2A = biological target: T4, PIP4K2A (UniProt P48426)
T4 sequence (whole entry): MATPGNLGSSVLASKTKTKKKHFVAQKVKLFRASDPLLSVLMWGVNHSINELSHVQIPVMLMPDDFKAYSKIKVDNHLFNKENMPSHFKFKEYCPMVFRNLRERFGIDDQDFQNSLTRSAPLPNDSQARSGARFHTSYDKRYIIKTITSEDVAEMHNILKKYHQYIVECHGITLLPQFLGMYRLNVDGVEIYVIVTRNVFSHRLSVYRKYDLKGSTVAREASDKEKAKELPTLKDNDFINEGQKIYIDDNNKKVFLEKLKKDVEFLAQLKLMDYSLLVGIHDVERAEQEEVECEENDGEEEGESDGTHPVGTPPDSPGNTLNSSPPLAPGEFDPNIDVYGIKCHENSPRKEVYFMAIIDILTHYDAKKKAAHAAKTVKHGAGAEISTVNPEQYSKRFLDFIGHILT

PKN1 = PKN1 (UniProt Q16512)
SIK2 = SIK2 (UniProt Q9H0K1)
SLK = SLK (UniProt Q9H2G2)
SYK = SYK (UniProt P43405)

Row | apparent dissociation constant pKd app (-log10) (ACVR2B) | apparent dissociation constant pKd app (-log10) (ADRBK1) | apparent dissociation constant pKd app (-log10) (ADRBK2) | apparent dissociation constant pKd app (-log10) (EPHA7) | apparent dissociation constant pKd app (-log10) (FGR) | apparent dissociation constant pKd app (-log10) (HIPK1) | apparent dissociation constant pKd app (-log10) (MAP2K6) | apparent dissociation constant pKd app (-log10) (MINK1) | apparent dissociation constant pKd app (-log10) (PIP4K2A) | apparent dissociation constant pKd app (-log10) (PKN1) | apparent dissociation constant pKd app (-log10) (SIK2) | apparent dissociation constant pKd app (-log10) (SLK) | apparent dissociation constant pKd app (-log10) (SYK) | SMILES
1 | < 4.7 | < 4.6 | < 4.6 | < 4.5 | < 4.8 | < 4.7 | < 4.5 | < 4.6 | < 4.6 | < 4.5 | < 4.8 | < 4.5 | < 4.6 | O=C(c1cc(Cc2n[nH]c(=O)c3ccccc23)ccc1F)N1CCN(C(=O)C2CC2)CC1 [Olaparib]
2 | < 4.7 | < 4.6 | < 4.6 | < 4.5 | < 4.8 | 5.05 ± 0.071 | < 4.5 | < 4.6 | < 4.6 | < 4.5 | < 4.8 | < 4.5 | < 4.6 | NC(=O)c1cccc2cn(-c3ccc([C@@H]4CCCNC4)cc3)nc12 [Niraparib]
3 | < 4.7 | < 4.6 | < 4.6 | < 4.5 | < 4.8 | < 4.7 | < 4.5 | < 4.6 | < 4.6 | < 4.5 | < 4.8 | < 4.5 | < 4.6 | Cn1ncnc1[C@H]1c2n[nH]c(=O)c3cc(F)cc(c23)N[C@@H]1c1ccc(F)cc1 [Talazoparib]

± gives the standard deviation of the averaged measurements.
